Values quoted from earlier work in US20090088403A1, “A3 ADENOSINE RECEPTORS AS TARGETS FOR THE MODULATION OF CENTRAL SEROTONERGIC SIGNALING” (priority 2007, published 2009).

Amino acid sequences for entries named in this document (tags omitted). A change or cut given only in a name is not applied to a line headed by its entry.
UniProt P30543, whole entry: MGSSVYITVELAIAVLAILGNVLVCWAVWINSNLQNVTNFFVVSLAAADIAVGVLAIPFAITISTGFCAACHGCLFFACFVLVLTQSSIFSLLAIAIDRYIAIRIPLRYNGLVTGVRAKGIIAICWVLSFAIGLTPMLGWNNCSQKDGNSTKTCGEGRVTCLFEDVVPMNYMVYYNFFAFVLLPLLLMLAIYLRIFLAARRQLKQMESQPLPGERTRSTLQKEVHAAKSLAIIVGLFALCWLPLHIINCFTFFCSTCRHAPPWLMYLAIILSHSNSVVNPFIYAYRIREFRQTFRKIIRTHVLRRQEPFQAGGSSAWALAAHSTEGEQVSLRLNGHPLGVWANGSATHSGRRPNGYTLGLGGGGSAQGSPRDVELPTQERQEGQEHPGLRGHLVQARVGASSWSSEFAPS
UniProt P25099, whole entry: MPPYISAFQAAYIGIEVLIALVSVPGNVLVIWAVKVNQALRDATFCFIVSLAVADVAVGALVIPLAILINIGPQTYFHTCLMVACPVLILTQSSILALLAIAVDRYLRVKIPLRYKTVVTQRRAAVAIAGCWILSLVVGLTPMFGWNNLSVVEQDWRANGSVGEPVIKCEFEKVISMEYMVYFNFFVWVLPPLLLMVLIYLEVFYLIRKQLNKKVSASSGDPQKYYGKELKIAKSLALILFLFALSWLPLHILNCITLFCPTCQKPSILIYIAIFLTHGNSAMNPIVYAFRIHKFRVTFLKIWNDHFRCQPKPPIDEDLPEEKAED

How the values were obtained:
[1] = target: A2A AR (Rattus norvegicus, UniProt P30543); settings: rat and mouse; cited from earlier work
[2] = target: A1 AR (Rattus norvegicus, UniProt P25099); settings: read-out: KD A1 AR; rat and mouse; cited from earlier work

Question: What does the source list for “N6-(3-iodobenzyl)-N-methyl-5′carbamoyladenosine [IB-MECA]”?
Answer: Kd [1]: ~50 nM; Kd [2]: ~50 nM
